Assay results reported in PubChem BioAssay AID588413 (Sanford-Burnham Center for Chemical Genomics, 2011).
Only a part is listed here, and it is no random draw. Calls of active or inactive are those of the source.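 The calls were made as follows: active = inhibition above about 55% (limit read from the data); inactive = the rest.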

assay: blockers of Gli reporter signaling – luciferase luminescence, Sufu-KO-LIGHT cells, uHTS, primary screen (AID 588413); settings: Sufu-KO-LIGHT fibroblasts, at 5 µM, active compounds read high;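 also: 0% = DMSO-treated cells and 100% = wells with medium but no cells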

Structure (SMILES)	inhibition
CCC(=O)N(c1ccccc1)C1(COC)CCN(CCc2cccs2)CC1	inactive: 27.9%
CCC(=O)N(c1ccccc1)C1(COC)CCN(CCn2nnn(CC)c2=O)CC1	inactive: -1.08%
